Laboratory results reported in patent US4743585A (Warner-Lambert Company, priority 1986, dated 1988).

Sequences of proteins named here, by UniProt entry; tags and fusion partners are left off. Residues count along the entry.
UniProt P00797, 67-406, species assumed: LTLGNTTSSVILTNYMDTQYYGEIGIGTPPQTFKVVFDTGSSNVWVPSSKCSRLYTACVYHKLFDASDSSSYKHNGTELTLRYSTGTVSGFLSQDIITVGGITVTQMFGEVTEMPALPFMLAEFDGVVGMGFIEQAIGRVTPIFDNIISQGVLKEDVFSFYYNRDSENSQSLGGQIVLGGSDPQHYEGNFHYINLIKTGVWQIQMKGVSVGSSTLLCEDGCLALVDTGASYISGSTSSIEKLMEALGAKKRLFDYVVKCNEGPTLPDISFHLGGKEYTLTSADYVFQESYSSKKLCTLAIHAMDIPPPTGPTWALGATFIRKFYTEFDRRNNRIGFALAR

Biological target: renin (Homo sapiens, UniProt P00797)
Test: in vitro renin inhibitory activity, standard radioimmunoassay for angiotensin I
Assay type: biochemical
Conditions: molar concentration causing 50% inhibition of renin activity; renin incubated two hours at 37° with substrate angiotensinogen; product angiotensin I by radioimmunoassay
Description: The effectiveness of the aforementioned compounds is determined by a test for in vitro renin inhibitory activity. This activity is determined by a standard radioimmunoassay for angiotensin I. In this assay the enzyme, renin, incubated for two hours at 37° in the presence of a substrate, angiotensinogen, generates the product, angiotensin I. Test compounds are added to the incubation mixture.

An IC50 of 3.8 µM was found for `CC(C)CC(NC(=O)CC(O)C(Cc1ccccc1)NC(=O)C(Cc1c[nH]cn1)NCC(Cc1ccccc1)NC(=O)OC(C)(C)C)C(=O)NCc1ccccc1` (stereo not shown) [Example 74, 2,5,8,13,16-pentaazaheptadecanoic acid, 10-hydroxy-6-(1H-imidazol-4-ylmethyl)-14-(2-methylpropyl)-7,12,15-trioxo-17-phenyl-3,9-bis(phenylmethyl)-, 1,1-dimethylethyl ester] in this work.
